This passage reports Kd results from patent publication US20150065436A1, “INHIBITING INTERACTION BETWEEN HIF-1ALPHA AND p300/CBP WITH HYDROGEN BOND SURROGATE-BASED HELICES” (UNIVERSITY OF SOUTHERN CALIFORNIA, priority 2013, published 2015).

Amino acid sequences for entries named in this document (tags omitted). Residues count along the entry.
UniProt Q09472, 323-423: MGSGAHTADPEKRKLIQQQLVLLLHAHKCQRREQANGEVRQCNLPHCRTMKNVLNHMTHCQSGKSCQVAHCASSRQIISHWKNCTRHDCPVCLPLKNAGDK

This assay addresses T1, p300-CH1 (Homo sapiens, UniProt Q09472).
T1 construct: human p300 CH1 domain (amino acid residues 323-423); GST (cleaved yes); made in house; host or cells: E. coli BL21 (DE3)
In words: Binding of HIF-1α C-TAD786-826 to purified p300-CH1 samples expressed at varying Zn2+ levels. Conditions: p300-CH1 samples from growth media with slightly changed Zn2+ concentrations; read-out: Kd of different purified protein samples. An excerpt: The CH1 domain of p300/CBP is stabilized by three zinc ions. Prior NMR structural studies have shown that the purified protein can rapidly aggregate in a buffer with excess or deficiency in Zn^2+ (Patgiri et al., “A Hydrogen Bond Surrogate Approach for Stabilization of Short Peptide Sequences in Alpha-Helical Conformation,” Acc. Chem. Res. 41(10):1289-300 (2008), which is hereby incorporated by reference in its entirety). […] The difficulty in working with this protein is directly correlated with its expression protocol, and slight changes in the concentrations of Zn^2+ in the bacterial growth media, supplemented with ZnSO4, could lead to purified protein samples that bind with different binding affinities (Kd˜30 nM-2 μM) to HIF-1αC-TAD786-826. To overcome this variability, ^15N labeled protein was prepared and peak dispersion (and protein folding) was monitored by ^1H-^15N HSQC NMR experiments (FIGS. 8A-D).

pKd: −log10 of the molar value.

Broadly, the pKd is the negative decadic logarithm of the Kd, by convention in mol/L. For `CC[C@H](C)[C@H](NC(=O)[C@@H]1CCCN1C(=O)[C@H](C)NC(=O)[C@H](CC(N)=O)NC(=O)[C@@H](NC(=O)[C@H](CCC(=O)O)NC(=O)[C@H](CS)NC(=O)[C@H](CC(=O)O)NC(=O)[C@H](Cc1ccc(O)cc1)NC(=O)[C@H](CO)NC(=O)[C@@H](NC(=O)[C@H](CC(C)C)NC(=O)[C@H](CCC(N)=O)NC(=O)[C@@H]1CCCN1C(=O)[C@H](CC(C)C)NC(=O)CNC(=O)[C@H](CO)NC(=O)[C@H](CCC(=O)O)NC(=O)[C@H](CC(=O)O)NC(=O)[C@H](CCSC)NC(=O)[C@@H](N)CO)[C@@H](C)O)C(C)C)C(=O)N[C@@H](CCC(N)=O)C(=O)NCC(=O)N[C@@H](CO)C(=O)N[C@@H](CCCNC(=N)N)C(=O)N[C@@H](CC(N)=O)C(=O)N[C@@H](CC(C)C)C(=O)N[C@@H](CC(C)C)C(=O)N[C@@H](CCC(N)=O)C(=O)NCC(=O)N[C@@H](CCC(=O)O)C(=O)N[C@@H](CCC(=O)O)C(=O)N[C@@H](CC(C)C)C(=O)N[C@@H](CC(C)C)C(=O)N[C@@H](CCCNC(=N)N)C(=O)N[C@@H](C)C(=O)N[C@@H](CC(C)C)C(=O)N[C@@H](CC(=O)O)C(=O)N[C@@H](CCC(N)=O)C(=O)N[C@H](C(=O)N[C@@H](CC(N)=O)C(=O)O)C(C)C` [HIF-1αC-TAD786-826], the pKd is 5.70 to 7.52.
